The source of these data is PMC8569887 (Journal of medicinal chemistry, 2021).

This assay relates to acetylated α-tubulin (AcTub) levels in QBI293 cells. The note with it: for Class (Table 1): from AcTub and α-Tub at 1 and 10 μM; for Class (Table 2): from AcTub and α-Tub at 1 and 10 μM (61: 10 and 30 μM).

Take `C[C@H](Nc1c(-c2ccc(F)cc2F)c(Cl)nc2ncnn12)C(F)(F)F` [Compound 11]: the “Class (Table 1)” value is “I (Class I compounds are those producing a concentration-dependent increase in AcTub levels and that do not cause >15% reduction in α-tubulin at either concentration)”. As to `Fc1cc(F)c(-c2c(Cl)nc3ncnn3c2N2CCCCCC2)c(F)c1` [Compound 52, 7-(Azepan-1-yl)-5-chloro-6-(2,4,6-trifluorophenyl)-[1,2,4]triazolo[1,5-a]pyrimidine], the “Class (Table 2)” value was “I (Class I compounds are those producing a concentration-dependent increase in AcTub levels and that do not cause >15% reduction in α-tubulin at either concentration)”.

`CC(CF)Nc1c(-c2c(F)cc(F)cc2F)c(Cl)nc2ncnn12` (stereo not shown) [Compound 44, 5-Chloro-N-(1-fluoropropan-2-yl)-6-(2,4,6-trifluorophenyl)-[1,2,4]triazolo[1,5-a]pyrimidin-7-amine]: the “Class (Table 2)” value is “I (Class I compounds are those producing a concentration-dependent increase in AcTub levels and that do not cause >15% reduction in α-tubulin at either concentration)”. Still for that read-out and setting: under `CC(Nc1c(-c2c(F)cc(F)cc2F)c(Cl)nc2ncnn12)C(F)F` (stereo not shown) [Compound 43, 5-Chloro-N-(1,1-difluoropropan-2-yl)-6-(2,4,6-trifluorophenyl)-[1,2,4]triazolo[1,5-a]pyrimidin-7-amine] stands “I (Class I compounds are those producing a concentration-dependent increase in AcTub levels and that do not cause >15% reduction in α-tubulin at either concentration)”. Still for that read-out and setting: the same measure for `Fc1cc(F)c(-c2c(Cl)nc3ncnn3c2N2CCCCCCC2)c(F)c1` [Compound 53, 7-(Azocan-1-yl)-5-chloro-6-(2,4,6-trifluorophenyl)-[1,2,4]triazolo[1,5-a]pyrimidine]: “I (Class I compounds are those producing a concentration-dependent increase in AcTub levels and that do not cause >15% reduction in α-tubulin at either concentration)”. `CO[C@H]1C[C@H]2CC[C@@H](C1)N2c1c(-c2c(F)cc(F)cc2F)c(Cl)nc2ncnn12` [Compound 54]: the “Class (Table 2)” value is “I (Class I compounds are those producing a concentration-dependent increase in AcTub levels and that do not cause >15% reduction in α-tubulin at either concentration)”.

As for `CC(C)Nc1c(-c2c(F)cc(F)cc2F)c(Cl)nc2ncnn12` [Compound 35, 5-Chloro-N-isopropyl-6-(2,4,6-trifluorophenyl)-[1,2,4]triazolo[1,5-a]pyrimidin-7-amine], the “Class (Table 2)” value is “I (Class I compounds are those producing a concentration-dependent increase in AcTub levels and that do not cause >15% reduction in α-tubulin at either concentration)”.

For `C[C@H](Nc1c(-c2c(F)cc(C(F)(F)F)cc2F)c(Cl)nc2ncnn12)C(F)(F)F` [Compound 19, (S)-5-Chloro-6-(2,6-difluoro-4-(trifluoromethyl)phenyl)-N-(1,1,1-trifluoropropan-2-yl)-[1,2,4]triazolo[1,5-a]pyrimidin-7-amine], the “Class (Table 1)” value is “I (Class I compounds are those producing a concentration-dependent increase in AcTub levels and that do not cause >15% reduction in α-tubulin at either concentration)”.

On to `Fc1cc(F)c(-c2c(Cl)nc3ncnn3c2N2CCCC2)c(F)c1` [Compound 50, 5-Chloro-7-(pyrrolidin-1-yl)-6-(2,4,6-trifluorophenyl)-[1,2,4]triazolo[1,5-a]pyrimidine], for which the “Class (Table 2)” value was “I (Class I compounds are those producing a concentration-dependent increase in AcTub levels and that do not cause >15% reduction in α-tubulin at either concentration)”. On to `C[C@H](Nc1c(-c2ccc(F)c(F)c2)c(Cl)nc2ncnn12)C(F)(F)F` [Compound 15, (S)-5-Chloro-6-(3,4-difluorophenyl)-N-(1,1,1-trifluoropropan-2-yl)-[1,2,4]triazolo[1,5-a]pyrimidin-7-amine], for which the “Class (Table 1)” value was “I (Class I compounds are those producing a concentration-dependent increase in AcTub levels and that do not cause >15% reduction in α-tubulin at either concentration)”. On to `Fc1cc(F)c(-c2c(Cl)nc3ncnn3c2NC2CCC2)c(F)c1` [Compound 56, 5-Chloro-N-cyclobutyl-6-(2,4,6-trifluorophenyl)-[1,2,4]triazolo[1,5-a]pyrimidin-7-amine], for which the “Class (Table 2)” value is “I (Class I compounds are those producing a concentration-dependent increase in AcTub levels and that do not cause >15% reduction in α-tubulin at either concentration)”. Take `CSc1cc(F)c(-c2c(Cl)nc3ncnn3c2N[C@@H](C)C(F)(F)F)c(F)c1` [Compound 28, (S)-5-Chloro-6-(2,6-difluoro-4-(methylthio)phenyl)-N-(1,1,1-trifluoropropan-2-yl)-[1,2,4]triazolo[1,5-a]pyrimidin-7-amine]: the “Class (Table 1)” value was “II (Class II compounds are those that cause >15% decrease in α-tubulin at either 1 or 10 μM compound concentration)”. Turning to `Fc1cc(F)c(-c2c(Cl)nc3ncnn3c2N2CCC2)c(F)c1` [Compound 49, 7-(Azetidin-1-yl)-5-chloro-6-(2,4,6-trifluorophenyl)-[1,2,4]triazolo[1,5-a]pyrimidine], the “Class (Table 2)” value was “I (Class I compounds are those producing a concentration-dependent increase in AcTub levels and that do not cause >15% reduction in α-tubulin at either concentration)”.

Regarding `C[C@H](Nc1c(-c2c(F)cc(O)cc2F)c(Cl)nc2ncnn12)C(F)(F)F` [Compound 33], the “Class (Table 1)” value is “II (Class II compounds are those that cause >15% decrease in α-tubulin at either 1 or 10 μM compound concentration)”. For `C[C@H](Nc1c(-c2ccccc2)c(Cl)nc2ncnn12)C(F)(F)F` [Compound 8, (S)-5-Chloro-6-phenyl-N-(1,1,1-trifluoropropan-2-yl)-[1,2,4]triazolo[1,5-a]pyrimidin-7-amine], the “Class (Table 1)” value is “I (Class I compounds are those producing a concentration-dependent increase in AcTub levels and that do not cause >15% reduction in α-tubulin at either concentration)”.

As for `C[C@H](Nc1c(-c2cc(F)ccc2F)c(Cl)nc2ncnn12)C(F)(F)F` [Compound 14, (S)-5-Chloro-6-(2,5-difluorophenyl)-N-(−1,1,1-trifluoropropan-2-yl)-[1,2,4]triazolo[1,5-a]pyrimidin-7-amine], the “Class (Table 1)” value was “I (Class I compounds are those producing a concentration-dependent increase in AcTub levels and that do not cause >15% reduction in α-tubulin at either concentration)”. On to `CC(C)[C@@H](Nc1c(-c2c(F)cc(F)cc2F)c(Cl)nc2ncnn12)C(F)(F)F` [Compound 46, (R)-5-Chloro-N-(1,1,1-trifluoro-3-methylbutan-2-yl)-6-(2,4,6-trifluorophenyl)-[1,2,4]triazolo[1,5-a]pyrimidin-7-amine], for which the “Class (Table 2)” value was “I (Class I compounds are those producing a concentration-dependent increase in AcTub levels and that do not cause >15% reduction in α-tubulin at either concentration)”. Take `Fc1cc(F)c(-c2c(Cl)nc3ncnn3c2NC2CCCC2)c(F)c1` [Compound 57, 5-Chloro-N-cyclopentyl-6-(2,4,6-trifluorophenyl)-[1,2,4]triazolo[1,5-a]pyrimidin-7-amine]: the “Class (Table 2)” value was “I (Class I compounds are those producing a concentration-dependent increase in AcTub levels and that do not cause >15% reduction in α-tubulin at either concentration)”. For the molecule `Fc1cc(F)c(-c2c(Cl)nc3ncnn3c2N2CCCCC2)c(F)c1` [Compound 51, 5-Chloro-7-(piperidin-1-yl)-6-(2,4,6-trifluorophenyl)-[1,2,4]triazolo[1,5-a]pyrimidine], the “Class (Table 2)” value was “I (Class I compounds are those producing a concentration-dependent increase in AcTub levels and that do not cause >15% reduction in α-tubulin at either concentration)”.

Consider `COc1cc(F)c(-c2c(Cl)nc3ncnn3c2N[C@@H](C)C(F)(F)F)c(F)c1` [Compound 24, (S)-5-chloro-6-(2,6-difluoro-4-methoxyphenyl)-N-(1,1,1-trifluoropropan-2-yl)-[1,2,4]triazolo[1,5-a]pyrimidin-7-amine], for which the “Class (Table 1)” value is “II (Class II compounds are those that cause >15% decrease in α-tubulin at either 1 or 10 μM compound concentration)”. On to `C[C@H](Nc1c(-c2cc(F)cc(F)c2)c(Cl)nc2ncnn12)C(F)(F)F` [Compound 13, (S)-5-Chloro-6-(3,5-difluorophenyl)-N-(1,1,1-trifluoropropan-2-yl)-[1,2,4]triazolo[1,5-a]pyrimidin-7-amine], for which the “Class (Table 1)” value was “I (Class I compounds are those producing a concentration-dependent increase in AcTub levels and that do not cause >15% reduction in α-tubulin at either concentration)”. For the molecule `Fc1cc(F)c(-c2c(Cl)nc3ncnn3c2NC2CCCCC2)c(F)c1` [Compound 58, 5-Chloro-N-cyclohexyl-6-(2,4,6-trifluorophenyl)-[1,2,4]triazolo[1,5-a]pyrimidin-7-amine], the “Class (Table 2)” value is “I (Class I compounds are those producing a concentration-dependent increase in AcTub levels and that do not cause >15% reduction in α-tubulin at either concentration)”. Still for that read-out and setting: under `Fc1cc(F)c(-c2c(Cl)nc3ncnn3c2NCc2ccccc2)c(F)c1` [Compound 41, N-Benzyl-5-chloro-6-(2,4,6-trifluorophenyl)-[1,2,4]triazolo[1,5-a]pyrimidin-7-amine] stands “I (Class I compounds are those producing a concentration-dependent increase in AcTub levels and that do not cause >15% reduction in α-tubulin at either concentration)”; under `CC(C)CNc1c(-c2c(F)cc(F)cc2F)c(Cl)nc2ncnn12` [Compound 37, 5-Chloro-N-isobutyl-6-(2,4,6-trifluorophenyl)-[1,2,4]triazolo[1,5-a]pyrimidin-7-amine], “I (Class I compounds are those producing a concentration-dependent increase in AcTub levels and that do not cause >15% reduction in α-tubulin at either concentration)”. In the case of `Cc1cc(F)c(-c2c(Cl)nc3ncnn3c2N[C@@H](C)C(F)(F)F)c(F)c1` [Compound 18, (S)-5-Chloro-6-(2,6-difluoro-4-methylphenyl)-N-(1,1,1-trifluoropropan-2-yl)-[1,2,4]triazolo[1,5-a]pyrimidin-7-amine], the “Class (Table 1)” value was “II (Class II compounds are those that cause >15% decrease in α-tubulin at either 1 or 10 μM compound concentration)”.
